## Yeast mating assay 2: variants of the scFv Ab-95

Reference: Engelhart et al. 2022, doi:10.1038/s41597-022-01779-4. File: FLAb, binding data.

Target peptide (SARS-CoV-2 spike, HR2 region): PDVDLGDISGINAS

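Library AAYL52 holds single substitutions and randomly drawn double and triple substitutions in the CDRs. In AlphaSeq, yeast of one mating type display the scFv and yeast of the other type display the target. After mating in shaken culture at 30 °C for 16 h, diploids were selected and their barcode pairs sequenced. Each replicate has its own calibration line, from reference interactions of the BCL2 family. There are three technical replicates.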

The variants keep the heavy chain, the linker and the frameworks of Ab-95 (scFv order VH, a (GGGGS)3 linker, VL).
VH: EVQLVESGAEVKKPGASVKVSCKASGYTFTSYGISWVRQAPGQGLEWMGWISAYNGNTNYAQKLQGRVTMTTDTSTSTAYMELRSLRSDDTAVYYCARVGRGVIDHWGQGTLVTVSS
VL: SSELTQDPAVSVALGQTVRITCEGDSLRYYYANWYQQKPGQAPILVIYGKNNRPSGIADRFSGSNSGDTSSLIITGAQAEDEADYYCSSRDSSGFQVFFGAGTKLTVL

Changes read parent residue, position, new residue, counted from the first residue of the VL shown. Numbers give log10(Kd / nM), so 0 is 1 nM and 3 is 1 µM. Smaller is tighter. "nd" marks a missing value. The strain was present, yet no cells mated with the target were sequenced in that replicate, which points to weak or no binding. As a blank, each scFv also met three strains without target: over library AAYL52, 28% of these pairings were detected, typically at 3.91 and seldom below 2.90. For each scFv, signals with the empty controls are counted beside the result, with their mean in brackets.

changes,log10 Kd (nM) by replicate,control signals
N33V+N51S,nd / nd / nd,4/9 (3.91)
A32Y+S89I+V97G,nd / nd / nd,0/9
K50I+D91P+F95D,nd / 3.81 / nd,3/9 (4.67)
N52T+R53N+P54H,4.30 / 5.68 / nd,6/9 (3.91)
G49R+N52K+S89N,4.05 / 4.09 / nd,5/9 (3.73)
G24C+Y30H+R90H,nd / nd / nd,0/9
Y29I+N51K+F95E,4.30 / nd / nd,4/9 (4.00)
Y31G+N52I+F98K,nd / 4.71 / nd,0/9
N51Y+R90T+G94W,3.85 / 4.09 / nd,5/9 (4.47)
N51A+S89I+D91H,3.25 / 3.48 / nd,3/9 (3.72)
E23I+G49C+R90Y,nd / 5.68 / nd,1/9 (4.35)
S26D+L27V+Y29K,3.42 / 3.95 / 4.10,3/9 (4.23)
G24R+R28E+Y29W,nd / 3.35 / nd,3/9 (3.11)
Y29I+N33I,nd / nd / 3.17,1/9 (4.78)
L27R+K50R+N51S,nd / nd / nd,4/9 (3.89)
G24R+K50H+V97N,4.29 / nd / nd,4/9 (4.35)
G24Q+D25Y+S88V,4.42 / nd / nd,3/9 (4.15)
R28W+Y30T+F98G,1.96 / 1.85 / 1.62,2/9 (3.96)
Y30P+N51P+Q96N,4.82 / 3.91 / nd,2/9 (4.26)
K50V+S55L+Q96V,3.41 / 3.06 / 3.91,2/9 (4.73)
K50T+G94E+F98P,4.44 / nd / nd,1/9 (4.07)
L27V+N33P+K50A,3.19 / nd / nd,4/9 (3.71)
S26H+R28A+Y31K,3.08 / 3.77 / 3.55,4/9 (3.30)
R28M+Y29K+P54N,2.61 / nd / 2.83,2/9 (3.70)
D25S+Y29K+K50G,1.66 / 1.73 / 1.26,2/9 (4.44)
A32H+N52L+S92N,nd / nd / nd,0/9
S26Y+R53Y+Q96N,4.16 / nd / nd,4/9 (3.14)
Y30H+Y31L+S55E,1.34 / 1.00 / 0.44,2/9 (3.89)
E23V+S26M+S92C,3.27 / 3.50 / nd,2/9 (4.49)
E23Y+K50N+F98Y,2.44 / 2.70 / 2.00,3/9 (3.33)
L27P+N33G+K50E,nd / nd / nd,0/9
D25H+N51L,nd / 4.32 / 4.52,5/9 (3.68)
N51H+S55V+D91R,nd / nd / nd,2/9 (3.67)

Picked from the list: the 5 lowest averages where every replicate gave a value.

{"changes": "Y30H+Y31L+S55E", "log10 Kd (nM) by replicate": "1.34 / 1.00 / 0.44", "control signals": "2/9 (3.89)"}
{"changes": "D25S+Y29K+K50G", "log10 Kd (nM) by replicate": "1.66 / 1.73 / 1.26", "control signals": "2/9 (4.44)"}
{"changes": "R28W+Y30T+F98G", "log10 Kd (nM) by replicate": "1.96 / 1.85 / 1.62", "control signals": "2/9 (3.96)"}
{"changes": "E23Y+K50N+F98Y", "log10 Kd (nM) by replicate": "2.44 / 2.70 / 2.00", "control signals": "3/9 (3.33)"}
{"changes": "K50V+S55L+Q96V", "log10 Kd (nM) by replicate": "3.41 / 3.06 / 3.91", "control signals": "2/9 (4.73)"}

Parent in this assay: reference entry 2.31, copy in this library 2.25.